“And” between values parts separate entries of the source, which are not always exact repeats. Identical values can stand only once. Only a part is listed here, and it is no random draw. Results filed as inconclusive are left out. A structure can be active in one record and inactive in another. The source made the active and inactive calls. How the source made its calls, unless noted: active means hit-call score of the fitted dose curve at least 0.9, where 1 is the maximum; inconclusive means response in the unintended direction; inactive means score below 0.9.

Chains of the proteins cited; added tags and fusions are not shown. Lines headed by an entry give the natural chain unless they say otherwise; changes in a name come on top.
UniProt P20813: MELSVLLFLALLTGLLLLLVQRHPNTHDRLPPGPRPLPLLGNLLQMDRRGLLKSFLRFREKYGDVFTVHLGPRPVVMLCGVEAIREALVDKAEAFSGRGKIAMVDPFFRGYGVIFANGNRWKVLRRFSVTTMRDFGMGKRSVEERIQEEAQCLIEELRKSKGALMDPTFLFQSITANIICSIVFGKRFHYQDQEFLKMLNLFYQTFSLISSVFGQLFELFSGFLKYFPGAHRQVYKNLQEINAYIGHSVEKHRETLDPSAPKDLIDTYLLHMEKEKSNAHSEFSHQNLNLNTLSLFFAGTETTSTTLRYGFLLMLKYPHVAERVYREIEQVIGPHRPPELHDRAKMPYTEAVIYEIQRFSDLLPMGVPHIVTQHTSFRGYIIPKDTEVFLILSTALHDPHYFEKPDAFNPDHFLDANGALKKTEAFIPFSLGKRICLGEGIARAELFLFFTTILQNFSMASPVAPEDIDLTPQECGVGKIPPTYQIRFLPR
UniProt P05177, whole entry, looked up: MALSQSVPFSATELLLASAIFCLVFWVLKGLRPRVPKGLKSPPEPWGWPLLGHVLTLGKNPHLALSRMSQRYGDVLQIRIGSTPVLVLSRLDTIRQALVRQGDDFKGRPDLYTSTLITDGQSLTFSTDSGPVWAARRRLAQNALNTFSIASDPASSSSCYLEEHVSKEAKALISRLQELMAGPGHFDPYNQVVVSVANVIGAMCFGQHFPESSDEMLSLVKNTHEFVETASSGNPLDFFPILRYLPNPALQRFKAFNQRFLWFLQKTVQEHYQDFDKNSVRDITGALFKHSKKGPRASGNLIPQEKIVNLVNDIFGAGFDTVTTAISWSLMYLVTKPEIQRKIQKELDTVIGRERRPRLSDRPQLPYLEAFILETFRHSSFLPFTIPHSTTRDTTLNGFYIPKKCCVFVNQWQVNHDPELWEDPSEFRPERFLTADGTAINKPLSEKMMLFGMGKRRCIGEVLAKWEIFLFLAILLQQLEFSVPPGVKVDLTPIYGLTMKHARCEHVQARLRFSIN
UniProt P33260, whole entry, looked up: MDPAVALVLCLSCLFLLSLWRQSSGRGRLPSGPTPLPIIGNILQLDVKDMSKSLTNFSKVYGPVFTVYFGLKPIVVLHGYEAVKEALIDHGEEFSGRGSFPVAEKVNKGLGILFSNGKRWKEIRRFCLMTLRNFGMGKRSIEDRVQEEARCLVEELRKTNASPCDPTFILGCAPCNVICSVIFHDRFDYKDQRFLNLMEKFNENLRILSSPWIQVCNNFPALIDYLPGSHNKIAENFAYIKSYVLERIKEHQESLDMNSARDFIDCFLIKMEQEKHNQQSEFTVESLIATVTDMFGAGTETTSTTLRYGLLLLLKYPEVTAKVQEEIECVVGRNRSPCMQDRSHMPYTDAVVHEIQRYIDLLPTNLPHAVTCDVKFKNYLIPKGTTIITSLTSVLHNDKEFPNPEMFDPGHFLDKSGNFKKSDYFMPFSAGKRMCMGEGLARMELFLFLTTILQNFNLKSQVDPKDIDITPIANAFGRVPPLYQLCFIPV
UniProt P10632, whole entry, looked up: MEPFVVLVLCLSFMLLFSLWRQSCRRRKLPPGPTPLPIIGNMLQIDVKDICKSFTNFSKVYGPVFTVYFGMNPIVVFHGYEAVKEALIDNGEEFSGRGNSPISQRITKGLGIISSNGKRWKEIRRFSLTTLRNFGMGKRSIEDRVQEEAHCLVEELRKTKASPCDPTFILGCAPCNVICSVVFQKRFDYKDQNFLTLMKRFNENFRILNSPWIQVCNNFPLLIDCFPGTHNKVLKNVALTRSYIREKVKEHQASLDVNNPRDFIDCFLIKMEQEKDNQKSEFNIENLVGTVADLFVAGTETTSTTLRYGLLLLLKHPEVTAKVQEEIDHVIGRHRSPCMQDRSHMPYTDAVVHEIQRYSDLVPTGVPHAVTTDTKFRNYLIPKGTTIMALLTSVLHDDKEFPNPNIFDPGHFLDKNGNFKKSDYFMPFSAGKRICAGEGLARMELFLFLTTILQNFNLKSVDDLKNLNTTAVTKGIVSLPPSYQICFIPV
UniProt P51589: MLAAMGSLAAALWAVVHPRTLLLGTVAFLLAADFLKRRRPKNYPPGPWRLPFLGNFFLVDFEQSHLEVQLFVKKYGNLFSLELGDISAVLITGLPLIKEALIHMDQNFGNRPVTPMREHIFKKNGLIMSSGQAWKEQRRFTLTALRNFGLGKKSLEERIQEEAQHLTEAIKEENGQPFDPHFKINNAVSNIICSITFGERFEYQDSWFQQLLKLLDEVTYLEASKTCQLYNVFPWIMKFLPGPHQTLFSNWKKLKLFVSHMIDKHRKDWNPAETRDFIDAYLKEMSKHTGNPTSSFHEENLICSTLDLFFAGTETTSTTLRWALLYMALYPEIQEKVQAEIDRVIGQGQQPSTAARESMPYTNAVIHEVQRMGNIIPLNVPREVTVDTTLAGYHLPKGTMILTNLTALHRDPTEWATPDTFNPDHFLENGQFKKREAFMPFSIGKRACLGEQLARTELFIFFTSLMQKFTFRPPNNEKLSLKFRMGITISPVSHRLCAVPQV
UniProt P11712, whole entry, looked up: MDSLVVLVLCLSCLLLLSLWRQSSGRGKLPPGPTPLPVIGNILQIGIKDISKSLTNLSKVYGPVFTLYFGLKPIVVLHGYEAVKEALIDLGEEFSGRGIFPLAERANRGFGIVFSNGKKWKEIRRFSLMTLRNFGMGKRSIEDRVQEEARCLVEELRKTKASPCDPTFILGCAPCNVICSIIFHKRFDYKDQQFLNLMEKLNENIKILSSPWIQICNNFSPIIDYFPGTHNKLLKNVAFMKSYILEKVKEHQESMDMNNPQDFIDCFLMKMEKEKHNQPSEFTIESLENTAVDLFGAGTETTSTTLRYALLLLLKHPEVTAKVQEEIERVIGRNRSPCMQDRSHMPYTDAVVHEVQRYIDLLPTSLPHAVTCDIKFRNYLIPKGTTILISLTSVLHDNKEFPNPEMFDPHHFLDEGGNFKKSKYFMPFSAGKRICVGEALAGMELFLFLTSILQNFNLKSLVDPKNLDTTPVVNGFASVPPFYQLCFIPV
UniProt P08684, whole entry, looked up: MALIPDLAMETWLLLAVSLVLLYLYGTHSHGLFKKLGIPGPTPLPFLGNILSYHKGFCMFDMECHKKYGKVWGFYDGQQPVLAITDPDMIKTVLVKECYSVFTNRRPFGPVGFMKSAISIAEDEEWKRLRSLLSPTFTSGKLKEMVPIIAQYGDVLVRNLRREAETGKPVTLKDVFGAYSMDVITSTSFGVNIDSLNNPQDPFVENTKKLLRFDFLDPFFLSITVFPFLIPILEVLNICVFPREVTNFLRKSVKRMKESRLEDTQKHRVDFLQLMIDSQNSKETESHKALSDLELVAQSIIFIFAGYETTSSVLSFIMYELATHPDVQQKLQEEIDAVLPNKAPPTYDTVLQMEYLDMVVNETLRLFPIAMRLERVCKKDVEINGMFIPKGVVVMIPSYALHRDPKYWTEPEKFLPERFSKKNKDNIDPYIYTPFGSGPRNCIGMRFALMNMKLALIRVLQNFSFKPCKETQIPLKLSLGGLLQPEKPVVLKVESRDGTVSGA
UniProt P33261, whole entry, looked up: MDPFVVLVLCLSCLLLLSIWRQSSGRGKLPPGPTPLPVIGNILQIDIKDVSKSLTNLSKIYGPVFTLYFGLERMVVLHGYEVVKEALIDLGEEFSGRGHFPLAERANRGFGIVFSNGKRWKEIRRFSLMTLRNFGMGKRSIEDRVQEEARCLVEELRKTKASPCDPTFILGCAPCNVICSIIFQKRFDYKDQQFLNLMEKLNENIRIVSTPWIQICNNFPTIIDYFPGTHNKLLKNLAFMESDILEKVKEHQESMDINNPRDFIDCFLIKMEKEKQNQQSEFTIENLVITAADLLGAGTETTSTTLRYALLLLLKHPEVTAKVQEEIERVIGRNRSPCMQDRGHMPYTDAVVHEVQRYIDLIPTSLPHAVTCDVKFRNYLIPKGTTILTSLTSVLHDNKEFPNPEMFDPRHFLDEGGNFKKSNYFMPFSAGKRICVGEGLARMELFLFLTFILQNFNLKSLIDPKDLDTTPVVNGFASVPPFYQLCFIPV
UniProt P11711: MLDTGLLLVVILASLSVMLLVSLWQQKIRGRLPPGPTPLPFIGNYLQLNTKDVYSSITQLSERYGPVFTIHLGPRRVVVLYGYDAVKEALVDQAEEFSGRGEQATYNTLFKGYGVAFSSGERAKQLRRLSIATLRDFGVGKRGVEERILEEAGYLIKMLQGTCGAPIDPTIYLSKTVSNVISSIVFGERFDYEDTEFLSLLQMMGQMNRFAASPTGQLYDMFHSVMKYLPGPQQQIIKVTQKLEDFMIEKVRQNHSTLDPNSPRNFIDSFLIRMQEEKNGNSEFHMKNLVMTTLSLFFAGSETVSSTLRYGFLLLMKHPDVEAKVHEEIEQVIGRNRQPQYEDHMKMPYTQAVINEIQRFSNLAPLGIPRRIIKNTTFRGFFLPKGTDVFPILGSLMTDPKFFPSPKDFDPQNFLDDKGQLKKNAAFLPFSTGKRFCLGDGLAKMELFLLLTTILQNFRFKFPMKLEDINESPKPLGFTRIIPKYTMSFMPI
UniProt P08683: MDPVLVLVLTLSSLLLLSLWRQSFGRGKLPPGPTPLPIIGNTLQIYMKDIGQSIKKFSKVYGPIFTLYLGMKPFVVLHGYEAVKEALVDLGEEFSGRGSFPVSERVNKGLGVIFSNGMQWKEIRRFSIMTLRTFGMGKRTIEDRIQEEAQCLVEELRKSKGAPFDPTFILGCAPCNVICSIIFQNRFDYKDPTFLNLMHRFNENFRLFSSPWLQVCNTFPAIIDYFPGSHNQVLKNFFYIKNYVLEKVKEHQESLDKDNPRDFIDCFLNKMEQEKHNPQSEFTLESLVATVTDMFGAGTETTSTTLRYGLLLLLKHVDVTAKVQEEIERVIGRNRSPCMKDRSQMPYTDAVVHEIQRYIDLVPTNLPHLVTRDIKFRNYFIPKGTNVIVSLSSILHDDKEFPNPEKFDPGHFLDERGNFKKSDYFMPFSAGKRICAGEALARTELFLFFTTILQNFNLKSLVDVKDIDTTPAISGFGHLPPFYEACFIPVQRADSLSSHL
UniProt P11510: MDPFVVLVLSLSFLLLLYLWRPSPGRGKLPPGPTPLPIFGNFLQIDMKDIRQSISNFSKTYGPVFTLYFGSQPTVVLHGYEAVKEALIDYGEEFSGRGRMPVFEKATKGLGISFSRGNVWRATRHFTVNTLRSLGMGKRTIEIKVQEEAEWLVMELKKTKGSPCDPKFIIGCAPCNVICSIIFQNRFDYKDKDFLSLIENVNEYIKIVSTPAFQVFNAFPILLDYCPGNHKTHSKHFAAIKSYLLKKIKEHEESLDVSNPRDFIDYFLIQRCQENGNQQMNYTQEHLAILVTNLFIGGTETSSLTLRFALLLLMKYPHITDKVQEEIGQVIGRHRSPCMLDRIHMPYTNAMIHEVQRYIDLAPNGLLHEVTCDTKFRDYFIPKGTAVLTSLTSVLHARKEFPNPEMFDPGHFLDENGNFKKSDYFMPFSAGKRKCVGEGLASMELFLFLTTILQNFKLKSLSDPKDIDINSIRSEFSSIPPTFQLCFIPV
UniProt P10633: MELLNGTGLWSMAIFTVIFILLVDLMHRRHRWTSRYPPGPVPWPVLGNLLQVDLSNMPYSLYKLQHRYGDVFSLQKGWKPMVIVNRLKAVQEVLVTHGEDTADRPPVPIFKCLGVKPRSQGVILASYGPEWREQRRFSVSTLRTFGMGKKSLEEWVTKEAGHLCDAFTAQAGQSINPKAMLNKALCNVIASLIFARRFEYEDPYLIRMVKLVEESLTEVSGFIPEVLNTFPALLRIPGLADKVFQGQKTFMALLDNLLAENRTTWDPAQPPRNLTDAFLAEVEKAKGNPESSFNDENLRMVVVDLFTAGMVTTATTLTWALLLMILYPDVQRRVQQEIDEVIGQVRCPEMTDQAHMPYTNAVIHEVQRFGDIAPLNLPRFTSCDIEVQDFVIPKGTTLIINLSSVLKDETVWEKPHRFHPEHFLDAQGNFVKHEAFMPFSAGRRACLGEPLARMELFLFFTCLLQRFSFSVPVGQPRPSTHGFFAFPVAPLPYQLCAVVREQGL
UniProt P10634: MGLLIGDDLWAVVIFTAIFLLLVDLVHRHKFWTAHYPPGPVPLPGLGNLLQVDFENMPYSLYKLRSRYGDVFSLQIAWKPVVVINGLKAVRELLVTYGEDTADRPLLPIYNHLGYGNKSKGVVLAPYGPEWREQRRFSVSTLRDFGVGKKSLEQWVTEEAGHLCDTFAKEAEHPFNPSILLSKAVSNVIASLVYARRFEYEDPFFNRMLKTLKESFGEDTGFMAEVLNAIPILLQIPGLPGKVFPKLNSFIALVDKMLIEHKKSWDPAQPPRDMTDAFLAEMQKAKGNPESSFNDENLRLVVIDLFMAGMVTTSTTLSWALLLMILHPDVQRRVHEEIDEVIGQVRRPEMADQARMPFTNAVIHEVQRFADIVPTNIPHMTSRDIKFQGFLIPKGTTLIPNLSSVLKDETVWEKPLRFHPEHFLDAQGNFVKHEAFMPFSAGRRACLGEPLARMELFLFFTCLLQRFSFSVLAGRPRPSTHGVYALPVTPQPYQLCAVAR

These results are taken from PubChem BioAssay (EPA / NIEHS).

For test [1], the target named is human CYP2B6, CYP2B6 (gene 1555) (UniProt P20813). Put plainly: NVS_ADME_hCYP2B6: NovaScreen (NVS) CYP450-related Enzyme Activity (ADME) Assay for human CYP2B6 (AID 2283101). In short, it runs like this: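 Cell-free recombinant enzyme assay with a fluorogenic substrate; fluorescence intensity read 1 hour after dosing. Loss of signal relative to acetonitrile negative control indicates inhibition. Primary screen run in duplicate at 10 uM, actives then tested in concentration series.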

For test [2], the target named is human CYP1A2, CYP1A2 (gene 1544) (UniProt P05177). In words: NVS_ADME_hCYP1A2: NovaScreen (NVS) CYP450-related Enzyme Activity (ADME) Assay for human CYP1A2 (AID 2283102).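 Further: potency for inhibition since loss of fluorescence marks reduced CYP1A2 activity.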 In short, it runs like this:
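Inhibition scored as decrease in fluorescent product versus acetonitrile negative control. Enzyme: insect-cell recombinant human CYP1A2, substrate-specific, cell-free. Reading at 0.5 h; 10 uM duplicate initial screen with positive and negative controls on every plate.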

Test [3] deals with Cytochrome P450 2C18 (Homo sapiens) (UniProt P33260). Put plainly: NVS_ADME_hCYP2C18: NovaScreen (NVS) CYP450-related Enzyme Activity (ADME) Assay for human CYP2C18 (AID 2283103; active means hit-call score of the fitted dose curve at least 0.9, where 1 is the maximum; inactive means score below 0.9). The method in brief:
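Enzyme activity measured by fluorescence 0.5 h after compound addition, using recombinant CYP2C18 and a specific substrate. Actives from duplicate 10 uM screening were retested in concentration series (top 20 uM); acetonitrile served as negative baseline.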

Test [4] deals with human CYP2C8, CYP2C8 (gene 1558) (UniProt P10632). Put plainly: NVS_ADME_hCYP2C8: NovaScreen (NVS) CYP450-related Enzyme Activity (ADME) Assay for human CYP2C8 (AID 2283104; active means hit-call score of the fitted dose curve at least 0.9, where 1 is the maximum; inactive means score below 0.9). The method in brief:
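Fluorescence readout of substrate turnover by recombinant CYP2C8 after 0.5 h, baseline acetonitrile. Single-concentration duplicate screen at 10 uM preceded singleton concentration series (max 20 uM) for compounds passing the inhibition threshold.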

For test [5], the target named is human CYP2J2, CYP2J2 (gene 1573) (UniProt P51589). In words: NVS_ADME_hCYP2J2: NovaScreen (NVS) CYP450-related Enzyme Activity (ADME) Assay for human CYP2J2 (AID 2283106). In short, it runs like this:
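Chemicals were first tested at 10 uM in duplicate, and hits meeting criteria such as 30% inhibition were run in singleton concentration series with a 20 uM top concentration. Enzyme activity of recombinant CYP2J2 was measured by fluorescence after 1 h, relative to acetonitrile.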

Test [6] has as its target human CYP2D6, CYP2D6 (gene 1565) (UniProt P10635). In words: NVS_ADME_hCYP2D6: NovaScreen (NVS) CYP450-related Enzyme Activity (ADME) Assay for human CYP2D6 (AID 2283107). In short, it runs like this: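 Biochemical fluorescence assay, insect-cell-derived enzyme. Read at 1 h; inhibition taken from loss of signal against acetonitrile. Screened at 10 uM in duplicate, with concentration series for actives.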

Test [7] deals with human CYP2C9, CYP2C9 (gene 1559) (UniProt P11712). Put plainly: NVS_ADME_hCYP2C9: NovaScreen (NVS) CYP450-related Enzyme Activity (ADME) Assay for human CYP2C9 (AID 2283108). In short, it runs like this:
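Recombinant human CYP2C9 expressed in SF9 cells, fluorogenic substrate, fluorescence read 0.75 h after dosing. Chemicals first run in duplicate at 10 uM, with actives followed in concentration series; loss of signal versus acetonitrile baseline.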

Test [8] concerns the target Cytochrome P450 3A4 (Homo sapiens) (UniProt P08684). In words: NVS_ADME_hCYP3A4: NovaScreen (NVS) CYP450-related Enzyme Activity (ADME) Assay for human CYP3A4 (AID 2283110). In short, it runs like this:
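Recombinant CYP3A4 from insect cells, fluorescence enzyme read-out, 0.33 h after chemical addition. Acetonitrile = negative control/baseline. Primary HTS: 10 uM in duplicate; actives re-tested in concentration series.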

Test [9] has as its target Cytochrome P450 2C19 (Homo sapiens) (UniProt P33261). Put plainly: NVS_ADME_hCYP2C19: NovaScreen (NVS) CYP450-related Enzyme Activity (ADME) Assay for human CYP2C19 (AID 2283113).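 On AC50: potency for inhibition seen as loss of fluorescent signal.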 The method in brief: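 Biochemical CYP2C19 inhibition screen: insect-cell recombinant protein plus fluorescent substrate, 1 h, fluorescence intensity. Acetonitrile defined baseline activity. Single 10 uM concentration in duplicate, with concentration-response follow-up for actives.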

For test [10], the target named is rat CYP2A1, Cyp2a1 (gene 24894) (UniProt P11711). Put plainly: NVS_ADME_rCYP2A1: NovaScreen (NVS) CYP450-related Enzyme Activity (ADME) Assay for rat CYP2A1 (AID 2283114; active means hit-call score of the fitted dose curve at least 0.9, where 1 is the maximum; inactive means score below 0.9). The method in brief: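 Cell-free fluorescence enzyme-activity read on recombinant rat CYP2A1, taken 0.75 h post-dosing. Compounds were screened in duplicate at 10 uM, then hits tested in concentration series (max 20 uM); inhibition scored relative to acetonitrile baseline.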

Test [11] deals with rat CYP2A2, Cyp2a2 (gene 24895) (UniProt P15149). Put plainly: NVS_ADME_rCYP2A2: NovaScreen (NVS) CYP450-related Enzyme Activity (ADME) Assay for rat CYP2A2 (AID 2283116). The method in brief:
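Compounds first tested in duplicate at 10 uM, then in singleton concentration series up to 20 uM when over threshold. Activity of the recombinant enzyme read by fluorescence at 0.2 h, normalised to acetonitrile vehicle.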

Test [12] deals with rat CYP2C11, Cyp2c11 (gene 29277) (UniProt P08683). In words: NVS_ADME_rCYP2C11: NovaScreen (NVS) CYP450-related Enzyme Activity (ADME) Assay for rat CYP2C11 (AID 2283118). The method in brief: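 Screened first at 10 uM in duplicate, hits followed by concentration-response. Recombinant rat enzyme activity monitored by fluorescence 0.33 h post-dosing, normalised to acetonitrile negative control.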

The target of test [13] is rat CYP2C12, Cyp2c12 (gene 25011) (UniProt P11510). In words: NVS_ADME_rCYP2C12: NovaScreen (NVS) CYP450-related Enzyme Activity (ADME) Assay for rat CYP2C12 (AID 2283119). The method in brief: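 Fluorescent-substrate turnover by recombinant rat CYP2C12, measured at 0.5 h, normalized to acetonitrile vehicle. Chemicals screened first at a single 10 uM concentration in duplicate, with concentration series for actives.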

The next test has as its system rat CYP2C6, gene 293989. In words: NVS_ADME_rCYP2C6: NovaScreen (NVS) CYP450-related Enzyme Activity (ADME) Assay for rat CYP2C6 (AID 2283120). The method in brief: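 Compounds first tested in duplicate at 10 uM, hits (e.g. 30% inhibition) re-run in singleton dose series to a 20 uM top concentration. Enzyme activity of recombinant rat CYP2C6 measured via fluorescent substrate turnover after 1 h; acetonitrile baseline.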

Test [14] concerns the target rat CYP2C13, Cyp2c13 (gene 171521) (UniProt P20814). In words: NVS_ADME_rCYP2C13: NovaScreen (NVS) CYP450-related Enzyme Activity (ADME) Assay for rat CYP2C13 (AID 2283121). The method in brief: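 Inhibition is read as decreased fluorescent product formation, referenced to acetonitrile vehicle. Cell-free recombinant rat Cyp2c13 reaction ran 0.75 hour; compounds first at 10 uM in duplicate, then concentration series for actives.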

Test [15] deals with rat CYP2D1, Cyp2d1 (gene 266684) (UniProt P10633). In words: NVS_ADME_rCYP2D1: NovaScreen (NVS) CYP450-related Enzyme Activity (ADME) Assay for rat CYP2D1 (AID 2283122). In short, it runs like this:
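Rat CYP2D1 enzyme activity measured by fluorescence intensity in a cell-free format, 0.75 h post-dosing, acetonitrile as negative control. Screening at 10 uM in duplicate, with actives followed in concentration series up to 20 uM.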

In test [16] the target is rat CYP2D2, Cyp2d26 (gene 25053) (UniProt P10634). In words: NVS_ADME_rCYP2D2: NovaScreen (NVS) CYP450-related Enzyme Activity (ADME) Assay for rat CYP2D2 (AID 2283124). The method in brief:
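Single-concentration duplicate testing at 10 uM, followed by concentration-response (top 20 uM) for chemicals passing threshold. Enzyme activity of the recombinant rat isoform measured by fluorescence after 0.75 h, acetonitrile as baseline.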

The test system of another test is rat CYP3A1, gene 25642. Put plainly: NVS_ADME_rCYP3A1: NovaScreen (NVS) CYP450-related Enzyme Activity (ADME) Assay for rat CYP3A1 (AID 2283126). The method in brief: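 Compounds went first at 10 uM duplicate, then to series with 20 uM maximum. Fluorescence from substrate turnover by the recombinant enzyme was measured 0.5 h post-dosing, inhibition scored against acetonitrile vehicle.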

The target of test [17] is human CYP4F12, CYP4F12 (gene 66002) (UniProt Q9HCS2). In words: NVS_ADME_hCYP4F12: NovaScreen (NVS) CYP450-related Enzyme Activity (ADME) Assay for human CYP4F12 (AID 2283111). In short, it runs like this: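 Recombinant enzyme with a fluorescent substrate, signal read at 0.5 h post-dose; activity loss analysed relative to acetonitrile. Compounds first run in duplicate at 10 uM, with follow-up concentration-response testing of actives.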

The subject of a further test is rat CYP2B1, gene 24300. In words: NVS_ADME_rCYP2B1: NovaScreen (NVS) CYP450-related Enzyme Activity (ADME) Assay for rat CYP2B1 (AID 2283117).

As a reminder, the AC50 is the concentration at which the activity in the assay is half-maximal. `CC(C)OP(=S)(OC(C)C)SCCNS(=O)(=O)c1ccccc1`: the AC50 in test [1] is active: 1.17 µM and active: 748 nM and active: 1.1 µM; in [2], active: 2.77 µM and active: 3.64 µM and active: 1.98 µM; in [3], active: 457 nM and active: 442 nM and active: 405 nM; in test [4], active: 736 nM and active: 1.04 µM and active: 861 nM; in test [5], active: 295 nM and active: 246 nM and active: 423 nM; in test [6] it was active: 3.68 µM and active: 3.64 µM and active: 2.79 µM. In addition, the AC50 was active: 2.15 µM and active: 2.21 µM and active: 2.25 µM in test [7]; active: 668 nM and active: 438 nM and active: 450 nM in test [8]; active: 131 nM and active: 96.2 nM and active: 113 nM in test [9]; active: 539 nM and active: 495 nM and active: 456 nM in test [10]; active: 1.12 µM and active: 782 nM and active: 1.15 µM in test [11]; active: 326 nM and active: 351 nM and active: 296 nM in [12]. The AC50 in test [13] is active: 2.76 µM and active: 1.63 µM and active: 799 nM; in the test on rat CYP2C6, gene 293989, active: 336 nM and active: 273 nM and active: 349 nM; in [14] it was active: 2.05 µM and active: 2.61 µM; in test [15] it was active: 1.45 µM and active: 832 nM and active: 1.27 µM; in test [16] it was active: 376 nM and active: 278 nM and active: 274 nM; in the test on rat CYP3A1, gene 25642, active: 266 nM and active: 270 nM and active: 242 nM. For the same molecule, the molecule was called inactive in test [14].

With `O=C1C2CC=CCC2C(=O)N1SC(Cl)(Cl)C(Cl)Cl` (stereo not drawn), the AC50 is active: 290 nM in [3]; active: 122 nM in test [4]; active: 128 nM in [17]; active: 204 nM with rat CYP2B1, gene 24300. Further, the outcome in test [9] and in test [13] was inactive.

For the molecule `CN(C(=O)Cc1cccc2occc12)[C@H]1CC[C@@]2(CCCO2)C[C@@H]1N1CCCC1`, the AC50 in test [7] is active: 9 µM; in [9], active: 6.95 µM.

As to `Cc1cc([N+](=O)[O-])cc([N+](=O)[O-])c1O`, in test [2], the AC50 was active: 7.5 µM.
